# Reference: US8580738B2, “Methods for treatment of reperfusion injury and other cardiac conditions” (The Board of Regents of the University of Texas System, priority 2007, dated 2013)
# Test system: rat myocardial ischemia-reperfusion model
# Assay: Rat myocardial ischemia-reperfusion model (30-min LAD occlusion, 4-hr reperfusion), infarct size
# Format: in vivo
# Conditions: i.v. infusion before LAD ligation; terbutaline 100 μg/kg, CGRP 30 ng/kg or combination; FIG. 9
# Protocol: CGRP-receptor blockade was achieved via i.v. infusion of calcitonin-gene related peptide receptor antagonist CGRP8-37 (10 μg kg/kg) 30 min before the onset of myocardial ischemia by ligating coronary artery. Selective δ-opioid agonist DPDPE reduced infarct size by 57% compared to the control group (25±3% vs 11±2%).
# Rat MI model is created by 30-min LAD ligation followed by 4-h reperfusion. Panels 8A and 8B show infarct size (30% of area-at-risk) in rats receiving saline (control) (FIG. 8A) and combination of terbutaline (1 mg/kg)+CGRP (30 ng/kg) infused at 20-min after LAD ligation (FIG. 8B), respectively. A necrotic infarct area 10 is visible as a light gray, as is the area-at-risk 11 intermediate gray supplied by LAD. Dark zone 12 is non-risk zone supplied by right and circumflex coronary arteries.
# (T+C)H: with high dose of terbutaline 1 mg/kg.
# Experimental Myocardial Ischemia-Reperfusion Model. The rat myocardial ischemia-reperfusion model will be used (Birnbaum et al., 2005; Huang et al., 2007). […]
# To determine whether δ-opioid-initiated infarct-size-reduction is partially mediated by CGRP or epinephrine, or totally dependent on synergistic action of both, DPDPE will be infused in the presence of CGRP8-37, ICI-118,551. or the combination of CGRP8-37 plus ICI-118,551. […] Arterial blood pressure and heart rate will be monitored continuously throughout the experiments.
substance,measurement,value
"CGRP: calcitonin gene-related peptide, 37 amino acid neuropeptide, vasodilator, infused exogenously (ACDTATCVTHRLAGLLSRSGGVVKNNFVPTNVGSKAF; Calcitonin gene-related peptide 1; UniProt P06881 83-119, looked up)","effect on infarct size, drug delivered before LAD ligation / acute MI",no significant infarct-size-reduction
